The test system of the assay is CD8+ CTLs, T2 stimulators pulsed with polypeptide. It counts as in vivo, HLA-A2 transgenic mice. As to conditions: 100 μg CpG, equimolar CpG:peptide, s.c., day 10 (FIG. 8).

The record followed here is US20090233871A1, “Complexed polypeptide and adjuvant for improved vaccines” (priority 2004, published 2009).

Turning to AAGIGILTV, the “priming on addition of a KCSRNR amino acid sequence vs native polypeptide” value was “increased priming”.
